Assay results taken from patent publication US20250236619A1, “FUSED BICYCLIC COMPOUND CONTAINING PYRROLINONE” (CHIA TAI TIANQING PHARMACEUTICAL GROUP CO., LTD., priority 2022, published 2025).

Protein sequences, listed by entry. Tags and fused reporters are not part of them.
UniProt Q92918, whole entry: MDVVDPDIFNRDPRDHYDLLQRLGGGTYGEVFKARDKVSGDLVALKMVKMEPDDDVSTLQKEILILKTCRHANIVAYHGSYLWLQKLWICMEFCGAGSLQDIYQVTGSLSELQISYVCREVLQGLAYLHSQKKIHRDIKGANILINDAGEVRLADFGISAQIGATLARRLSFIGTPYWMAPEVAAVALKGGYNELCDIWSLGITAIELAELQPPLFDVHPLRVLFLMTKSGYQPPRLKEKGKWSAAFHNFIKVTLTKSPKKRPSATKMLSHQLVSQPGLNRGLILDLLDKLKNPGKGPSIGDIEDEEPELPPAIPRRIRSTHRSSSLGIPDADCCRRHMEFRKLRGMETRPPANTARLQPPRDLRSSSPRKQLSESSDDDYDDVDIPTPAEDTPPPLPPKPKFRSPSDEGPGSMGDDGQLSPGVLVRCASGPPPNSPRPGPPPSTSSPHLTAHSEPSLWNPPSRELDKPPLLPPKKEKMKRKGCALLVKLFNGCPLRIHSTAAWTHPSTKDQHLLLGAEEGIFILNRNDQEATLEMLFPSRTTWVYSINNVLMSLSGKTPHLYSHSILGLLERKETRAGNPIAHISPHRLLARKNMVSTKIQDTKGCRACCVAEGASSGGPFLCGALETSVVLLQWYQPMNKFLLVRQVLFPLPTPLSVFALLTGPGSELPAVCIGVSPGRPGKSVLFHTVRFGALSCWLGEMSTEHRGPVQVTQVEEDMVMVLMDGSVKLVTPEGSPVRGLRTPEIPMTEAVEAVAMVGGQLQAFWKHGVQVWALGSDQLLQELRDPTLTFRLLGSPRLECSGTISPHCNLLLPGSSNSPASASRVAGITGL

Legend:
[1] = test system: p-SLP76 phosphorylation of Jurkat cells; test: Assay for inhibitory activity against p-SLP76 phosphorylation of Jurkat cells; details: read-out: IC50 (nM) for inhibition of p-SLP76 phosphorylation of Jurkat cells, stimulator CD3CD28, 30 min
Method: 2.1 Assay for Inhibitory Activity Against p-SLP76 Phosphorylation of Jurkat Cells
Jurkat cells in a good growth state were added to a centrifuge tube, centrifuged, and resuspended. The cell density was adjusted to 6.25×10^6 cells/mL, and the cells were seeded in a 384-well small-volume white plate at […]. Different compounds dissolved in DMSO were added to the wells using a nanoliter pipettor to obtain final concentrations of the compounds of 2500 nM to 10.29 nM, and a control was set; the wells were set in duplicate. After 1 h of cell culture, the stimulator CD3CD28 (manufacturer: stemcell, 4 μL) was added and the cells were incubated at 37° C. for 30 min. 3 μL of lysis buffer (manufacturer: BioAuxilium) was added to each well, and the plate was shaken at room temperature for 30 min. After the lysate was well mixed, 5 μL of pre-mixed antibody (manufacturer: BioAuxilium) in assay buffer was added and the plate was incubated overnight at room temperature. The signal values were measured on a PerkinElmer Envision multimode microplate reader (excitation: 320 nm, emission: 615 nm/665 nm), and IC50 was calculated by four-parameter filling.

HPK1 kinase = HPK1 kinase (Homo sapiens (Human), UniProt Q92918); test: Assay for in vitro inhibitory activity against HPK1 kinase; details: read-out: IC50 (nM) for in vitro inhibitory activity against HPK1 kinase; HPK1 1 ng/μL, ATP 1 mM, STK Substrate 1-biotin 500 nM
Method: Experimental Example 1: Assay for In Vitro Inhibitory Activity Against HPK1 Kinase A kinase buffer (Enzymatic buffer 5×) was diluted to 1×, and 10 mM MgCl2, 1 mM DTT, and 0.005% Tween 20 were added. A 100 ng/μL HPK1 (Life technology) stock solution was diluted with the kinase buffer to obtain a 1.67×, 1.67 ng/μL working solution (final concentration: 1 ng/μL), and the working solution was seeded in a 384-well plate at 6 μL/well. Different compounds dissolved in DMSO were added to the wells using a nanoliter pipettor to obtain final concentrations of the compounds of 1000 nM to 0.244 nM (4-fold serial dilution, 7 concentrations in total), and blank control wells (without enzyme) and negative control wells (with enzyme, plus vehicle DMSO) were set; the wells were set in duplicate. After the enzyme and the compounds were incubated at room temperature for 1 h, a 5×, 5 mM ATP dilution (final concentration: 1 mM) in the kinase buffer was mixed with a 5×, […] substrate (Cisbio, STK Substrate 1-biotin; final concentration: 500 nM) in equal volume, and the mixture was added to the plate at 4 µL/well. The plate was sealed with a film and then incubated at room temperature for 2 h. […] The signal values (excitation: […]) were measured using a PE Envision multimode microplate reader, and IC50 was calculated by four-parameter fitting.

Structure (SMILES) | IC50 [1] [nM] | IC50 (HPK1 kinase) [nM]
CN(C)Cc1nc(Nc2ccc(-c3cnn4ccc5c(c34)CCO5)c3c2C(=O)NC3)ccc1C1CCOCC1 | < 50 | –
CN(C)Cc1nc(Nc2ccc(-c3cnc4ccc5c(n34)CCC5)c3c2C(=O)NC3)ccc1C1CCOCC1 | < 50 | –
CN(C)Cc1nc(Nc2ccc(-c3cnn4ccc5c(c34)CCO5)c3c2C(=O)NC3)ccc1C1CCN(C)C(=O)C1 (stereo not shown) | < 50 | 3.4
[2H]C([2H])(c1nc(Nc2ccc(-c3ccnc4c3c3c(n4C)CCC3)c3c2C(=O)NC3)ccc1C1CCOCC1)N(C)C | 50 to 100 | –
CNCc1nc(Nc2ccc(-c3cnn4ccc5occc5c34)c3c2C(=O)NC3)ccc1C1CCOC1 (stereo not shown) | < 50 | 2.3
